The series has as its target BCRP (Homo sapiens, UniProt Q9UNQ0). The experiment in a line: BCRP inhibition, prazosin accumulation assay in MDCKII-BCRP cells. The settings on record: novobiocin 5 µM, prazosin 5 µM.

By UniProt entry, the sequences of proteins in these tests, tags left out. Where a name states a change or a piece, a line headed by the entry shows the natural chain unless it says otherwise.
UniProt Q9UNQ0: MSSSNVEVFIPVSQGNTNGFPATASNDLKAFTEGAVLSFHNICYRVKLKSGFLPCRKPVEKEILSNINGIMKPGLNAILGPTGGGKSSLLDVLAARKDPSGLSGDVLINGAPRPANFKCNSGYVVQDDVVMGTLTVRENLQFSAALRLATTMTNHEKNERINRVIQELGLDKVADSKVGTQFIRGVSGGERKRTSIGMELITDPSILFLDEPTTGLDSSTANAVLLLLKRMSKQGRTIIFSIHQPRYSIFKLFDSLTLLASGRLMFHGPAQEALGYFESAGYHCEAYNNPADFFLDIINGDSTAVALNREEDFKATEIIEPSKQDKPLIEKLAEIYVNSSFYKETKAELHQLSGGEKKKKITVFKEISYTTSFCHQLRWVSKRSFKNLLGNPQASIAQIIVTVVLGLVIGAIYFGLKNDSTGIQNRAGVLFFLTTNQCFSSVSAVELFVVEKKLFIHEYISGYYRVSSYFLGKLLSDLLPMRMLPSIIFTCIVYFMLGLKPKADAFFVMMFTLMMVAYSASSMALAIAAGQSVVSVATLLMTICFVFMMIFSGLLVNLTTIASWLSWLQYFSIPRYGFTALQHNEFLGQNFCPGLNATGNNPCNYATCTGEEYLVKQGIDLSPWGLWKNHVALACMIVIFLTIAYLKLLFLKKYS

Experimental findings from article PMC12325899 (Scientific Reports, 2025) are described below.

On to `CO[C@@H]1[C@@H](OC(N)=O)[C@@H](O)[C@H](Oc2ccc3c(O)c(NC(=O)c4ccc(O)c(CC=C(C)C)c4)c(=O)oc3c2C)OC1(C)C` [Novobiocin, reference compound], for which the “prazosin accumulation in MDCKII-BCRP with positive control inhibitor” value is “restored prazosin accumulation to levels similar to those observed in MDCKII-mock cells”.
